# Literature values in US20140288899A1, “C[…] OF BINDING FREE ENERGY, C[…] OF BINDING FREE ENERGY, PROGRAM, SCREENING METHOD OF COMPOUND” (FUJITSU LIMITED, priority 2013, published 2014).
# Amino acid sequences for entries named in this document (tags omitted).
# UniProt P62942, whole entry: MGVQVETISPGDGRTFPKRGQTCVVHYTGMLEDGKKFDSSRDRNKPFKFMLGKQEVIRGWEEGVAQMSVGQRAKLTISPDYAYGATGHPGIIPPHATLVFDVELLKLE
# Key:
# FK506 BINDING PROTEIN [1] = target: T1, FK506 BINDING PROTEIN (Homo sapiens, UniProt P62942); conditions: experimental value disclosed in Holt et al., J. Am. Chem. Soc. 1993, 115, 9925-9938
# FK506 BINDING PROTEIN [2] = target: T1, FK506 BINDING PROTEIN; conditions: calculation value of Wang et al., Biophysical Journal Vol. 91, 2798-2814; restriction with a spring
structure (smiles),measurement,setting,value
"C=CC[C@@H]1/C=C(\C)C[C@H](C)C[C@H](OC)[C@H]2O[C@@](O)(C(=O)C(=O)N3CCCC[C@H]3C(=O)O[C@H](/C(C)=C/[C@@H]3CC[C@@H](O)[C@H](OC)C3)[C@H](C)[C@@H](O)CC1=O)[C@H](C)C[C@@H]2OC [1fkj, 8-DEETHYL-8-[BUT-3-ENYL]-ASCOMYCIN]","binding free energy, experimental value",FK506 BINDING PROTEIN [1],-12.7 kcal/mol
same,"binding free energy, calculation result of Comparative Example",FK506 BINDING PROTEIN [2],-10.1 kcal/mol
